Source: ChEMBL document CHEMBL1949507, “Synthesis and biological evaluation of [6]-gingerol analogues as transient receptor potential channel TRPV1 and TRPA1 modulators” (Bioorg Med Chem Lett, 2012)

Sequences of proteins named here, by UniProt entry; tags and fusion partners are left off.
UniProt Q8NER1, whole entry: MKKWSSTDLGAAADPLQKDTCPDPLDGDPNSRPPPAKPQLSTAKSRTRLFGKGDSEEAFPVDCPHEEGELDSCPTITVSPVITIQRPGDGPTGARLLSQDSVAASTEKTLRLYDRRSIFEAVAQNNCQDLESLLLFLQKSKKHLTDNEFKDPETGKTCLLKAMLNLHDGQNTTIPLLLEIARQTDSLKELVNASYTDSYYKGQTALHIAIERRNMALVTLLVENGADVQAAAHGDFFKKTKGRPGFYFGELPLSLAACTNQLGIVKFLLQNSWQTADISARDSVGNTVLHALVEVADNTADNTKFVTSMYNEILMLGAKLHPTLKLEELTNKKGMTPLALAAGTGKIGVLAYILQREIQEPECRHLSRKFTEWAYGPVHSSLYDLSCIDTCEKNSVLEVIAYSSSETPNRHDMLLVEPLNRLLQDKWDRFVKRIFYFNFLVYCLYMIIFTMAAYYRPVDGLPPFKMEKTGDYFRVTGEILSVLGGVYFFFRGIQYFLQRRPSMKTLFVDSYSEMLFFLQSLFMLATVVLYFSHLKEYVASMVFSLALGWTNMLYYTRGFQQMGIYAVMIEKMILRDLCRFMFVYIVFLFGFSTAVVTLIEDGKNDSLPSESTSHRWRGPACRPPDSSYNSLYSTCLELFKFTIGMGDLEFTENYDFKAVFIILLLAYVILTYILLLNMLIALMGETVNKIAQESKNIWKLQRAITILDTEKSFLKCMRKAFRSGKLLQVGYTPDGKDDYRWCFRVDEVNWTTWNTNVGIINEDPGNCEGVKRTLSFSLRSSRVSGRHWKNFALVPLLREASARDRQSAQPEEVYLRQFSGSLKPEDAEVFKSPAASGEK
UniProt Q6RI86, whole entry: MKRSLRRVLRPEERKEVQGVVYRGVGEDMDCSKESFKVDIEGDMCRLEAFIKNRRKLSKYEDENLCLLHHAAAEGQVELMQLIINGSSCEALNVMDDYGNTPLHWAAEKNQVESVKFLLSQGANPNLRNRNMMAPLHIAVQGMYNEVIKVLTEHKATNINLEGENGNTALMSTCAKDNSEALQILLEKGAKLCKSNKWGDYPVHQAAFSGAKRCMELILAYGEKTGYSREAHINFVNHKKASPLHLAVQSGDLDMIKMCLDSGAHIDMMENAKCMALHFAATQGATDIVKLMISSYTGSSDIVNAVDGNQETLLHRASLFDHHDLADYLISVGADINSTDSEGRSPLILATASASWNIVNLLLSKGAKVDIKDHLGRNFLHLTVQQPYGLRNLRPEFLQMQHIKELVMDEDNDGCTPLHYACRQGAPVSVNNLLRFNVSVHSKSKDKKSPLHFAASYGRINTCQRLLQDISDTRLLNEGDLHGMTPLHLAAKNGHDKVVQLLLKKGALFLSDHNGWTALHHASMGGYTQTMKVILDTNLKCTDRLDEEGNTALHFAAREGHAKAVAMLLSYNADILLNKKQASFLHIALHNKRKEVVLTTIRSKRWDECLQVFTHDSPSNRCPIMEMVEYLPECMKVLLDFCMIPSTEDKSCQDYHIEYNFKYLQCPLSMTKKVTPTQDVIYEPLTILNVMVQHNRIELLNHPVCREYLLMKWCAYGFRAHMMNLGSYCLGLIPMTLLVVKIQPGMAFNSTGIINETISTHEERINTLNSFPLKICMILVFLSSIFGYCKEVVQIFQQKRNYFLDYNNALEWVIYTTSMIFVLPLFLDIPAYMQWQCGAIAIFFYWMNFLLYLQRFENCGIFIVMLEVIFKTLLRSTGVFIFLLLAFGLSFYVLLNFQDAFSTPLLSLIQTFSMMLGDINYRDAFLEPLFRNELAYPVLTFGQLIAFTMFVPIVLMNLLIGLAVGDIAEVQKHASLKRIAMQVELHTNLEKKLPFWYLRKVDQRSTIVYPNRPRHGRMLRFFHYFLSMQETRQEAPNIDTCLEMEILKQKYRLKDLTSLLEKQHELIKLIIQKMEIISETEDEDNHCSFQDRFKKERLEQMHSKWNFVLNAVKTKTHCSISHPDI

Key:
[1] = target: Transient receptor potential cation channel subfamily V member 1 (Homo sapiens, UniProt Q8NER1); experiment: Agonist activity at human TRPV1 ion channel expressed in HEK293 cells assessed as calcium influx by fluo-4-Am-based fluorimetry relative to ionomycin; type: functional, cell-based
[2] = target: Transient receptor potential cation channel subfamily A member 1 (Rattus norvegicus) (UniProt Q6RI86); experiment: Agonist activity at rat TRPA1 ion channel expressed in HEK293 cells assessed as calcium influx by fluo-4-Am-based fluorimetry relative to allyl isothiocyanate; type: functional, cell-based

O=C(CCc1ccc2c(c1)OCO2)CC(O)CCCCCCc1ccccc1 (configuration not stated)
Efficacy [1]: < 10% | Efficacy [2]: < 10%
